System: patients with IBC (inflammatory breast cancer)
Experiment: EGF103009 open-label study of lapatinib monotherapy: clinical response (skin criteria / RECIST) and progression-free survival
Type: in vivo, human
Conditions: cohort A responders

CS(=O)(=O)CCNCc1ccc(-c2ccc3ncnc(Nc4ccc(OCc5cccc(F)c5)c(Cl)c4)c3c2)o1 [lapatinib, Lapatinib ditosylate]
Median duration of overall response (skin and RECIST): 16.9 weeks
